Reference: patent publication US20170174769A1
Read-outs that look alike come from different tables or passages of the source.

By UniProt entry, the sequences of proteins in these tests, tags left out. Residues count along the entry.
UniProt Q86Z14, 1-996 limits assumed: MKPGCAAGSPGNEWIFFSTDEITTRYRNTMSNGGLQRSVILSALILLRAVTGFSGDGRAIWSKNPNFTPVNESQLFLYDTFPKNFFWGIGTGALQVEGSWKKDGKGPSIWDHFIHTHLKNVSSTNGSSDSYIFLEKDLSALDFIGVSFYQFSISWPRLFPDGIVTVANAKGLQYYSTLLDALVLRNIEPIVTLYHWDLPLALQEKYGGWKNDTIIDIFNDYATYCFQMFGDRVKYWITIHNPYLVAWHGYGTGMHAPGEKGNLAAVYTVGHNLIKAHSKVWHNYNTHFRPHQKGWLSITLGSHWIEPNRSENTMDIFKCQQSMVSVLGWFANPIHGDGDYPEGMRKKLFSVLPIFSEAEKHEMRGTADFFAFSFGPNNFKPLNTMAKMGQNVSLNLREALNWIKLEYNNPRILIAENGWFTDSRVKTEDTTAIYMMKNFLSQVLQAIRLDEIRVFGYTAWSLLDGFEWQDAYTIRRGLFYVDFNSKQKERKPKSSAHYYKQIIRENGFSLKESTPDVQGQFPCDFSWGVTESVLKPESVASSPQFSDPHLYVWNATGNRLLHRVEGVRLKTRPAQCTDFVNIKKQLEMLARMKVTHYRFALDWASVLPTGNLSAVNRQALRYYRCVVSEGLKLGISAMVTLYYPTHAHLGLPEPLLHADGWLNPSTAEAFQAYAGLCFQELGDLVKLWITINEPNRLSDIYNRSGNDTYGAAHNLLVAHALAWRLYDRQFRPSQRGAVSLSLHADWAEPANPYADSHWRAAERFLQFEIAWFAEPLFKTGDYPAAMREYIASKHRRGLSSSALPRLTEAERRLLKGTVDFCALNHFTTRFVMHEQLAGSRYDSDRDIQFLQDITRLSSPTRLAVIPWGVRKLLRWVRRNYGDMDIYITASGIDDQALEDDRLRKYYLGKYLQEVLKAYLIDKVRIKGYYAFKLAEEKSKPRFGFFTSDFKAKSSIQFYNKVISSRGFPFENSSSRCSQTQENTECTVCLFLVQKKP
UniProt Q86Z14, whole entry: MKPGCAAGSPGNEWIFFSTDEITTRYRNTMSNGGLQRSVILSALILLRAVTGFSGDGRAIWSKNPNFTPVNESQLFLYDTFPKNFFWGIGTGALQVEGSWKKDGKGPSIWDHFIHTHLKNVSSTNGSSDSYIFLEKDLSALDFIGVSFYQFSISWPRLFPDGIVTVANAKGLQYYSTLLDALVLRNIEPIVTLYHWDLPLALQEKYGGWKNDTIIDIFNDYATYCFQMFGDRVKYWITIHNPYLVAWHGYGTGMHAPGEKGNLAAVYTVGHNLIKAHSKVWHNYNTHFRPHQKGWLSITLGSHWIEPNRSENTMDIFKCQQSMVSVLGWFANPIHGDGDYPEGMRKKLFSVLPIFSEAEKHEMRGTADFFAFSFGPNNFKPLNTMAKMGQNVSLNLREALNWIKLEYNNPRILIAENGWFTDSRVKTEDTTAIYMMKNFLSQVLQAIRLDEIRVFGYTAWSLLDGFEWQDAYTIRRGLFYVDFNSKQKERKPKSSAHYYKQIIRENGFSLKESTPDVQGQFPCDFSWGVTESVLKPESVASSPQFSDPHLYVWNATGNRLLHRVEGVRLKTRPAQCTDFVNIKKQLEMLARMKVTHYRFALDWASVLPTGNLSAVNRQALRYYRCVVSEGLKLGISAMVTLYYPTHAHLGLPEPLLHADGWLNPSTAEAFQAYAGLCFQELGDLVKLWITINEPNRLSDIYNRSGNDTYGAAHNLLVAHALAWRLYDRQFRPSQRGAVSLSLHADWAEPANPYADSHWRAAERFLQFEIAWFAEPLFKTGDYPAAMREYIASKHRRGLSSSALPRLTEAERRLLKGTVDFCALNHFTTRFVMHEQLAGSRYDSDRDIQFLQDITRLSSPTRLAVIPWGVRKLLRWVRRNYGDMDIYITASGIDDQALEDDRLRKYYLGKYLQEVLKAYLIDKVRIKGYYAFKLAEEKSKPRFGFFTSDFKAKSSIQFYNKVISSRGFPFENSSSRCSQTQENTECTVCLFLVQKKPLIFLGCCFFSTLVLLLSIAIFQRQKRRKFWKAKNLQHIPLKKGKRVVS
UniProt P11362, 22-822, chain 1 of 2: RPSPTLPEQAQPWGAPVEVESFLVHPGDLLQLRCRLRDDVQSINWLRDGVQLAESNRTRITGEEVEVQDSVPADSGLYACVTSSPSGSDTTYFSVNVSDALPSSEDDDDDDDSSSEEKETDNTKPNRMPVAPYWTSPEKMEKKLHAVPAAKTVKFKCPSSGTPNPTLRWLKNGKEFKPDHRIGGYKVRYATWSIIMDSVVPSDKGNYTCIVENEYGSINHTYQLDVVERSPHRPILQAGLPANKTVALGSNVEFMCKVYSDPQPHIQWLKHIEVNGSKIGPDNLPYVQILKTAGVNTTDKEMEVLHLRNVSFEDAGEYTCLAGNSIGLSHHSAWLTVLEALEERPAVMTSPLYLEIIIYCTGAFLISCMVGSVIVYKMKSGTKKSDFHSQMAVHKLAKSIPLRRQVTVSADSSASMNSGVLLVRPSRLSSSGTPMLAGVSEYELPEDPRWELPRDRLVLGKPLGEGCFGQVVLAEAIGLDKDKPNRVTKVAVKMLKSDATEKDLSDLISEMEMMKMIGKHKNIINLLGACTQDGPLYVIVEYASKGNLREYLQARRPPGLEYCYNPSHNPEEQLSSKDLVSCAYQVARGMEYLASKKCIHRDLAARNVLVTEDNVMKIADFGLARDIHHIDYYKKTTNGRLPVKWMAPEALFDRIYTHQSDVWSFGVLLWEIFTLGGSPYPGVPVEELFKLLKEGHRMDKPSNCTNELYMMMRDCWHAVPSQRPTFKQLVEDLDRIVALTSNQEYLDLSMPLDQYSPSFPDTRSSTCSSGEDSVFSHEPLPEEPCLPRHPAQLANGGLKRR

Tests used:
[1] = biological target: extracellular domain of human KLB expressed with C-terminal HA and hexahistidine tags (human) (UniProt Q86Z14); experiment: SPR, mAb captured, 37 C
[2] = biological target: extracellular domain of human FGFR1c expressed with C-terminal V5 and hexahistidine tags (human) (UniProt P11362); experiment: SPR, mAb captured, 37 C
[3] = biological target: full-length human FGFR1c on HEK293/hFGFR1c/SRE-luc cells (human) (UniProt P11362); experiment: FACS on stable HEK293 cells
[4] = biological target: full-length human KLB on HEK293/hKLB/SRE-luc cells (human) (UniProt Q86Z14); experiment: FACS on stable HEK293 cells
[5] = biological target: human KLB and human FGFR1c co-expressed on HEK293/hKLB/hFGFR1c/SRE-luc cells (human) (UniProt Q86Z14); experiment: FACS on stable HEK293 cells
[6] = biological target: cell-surface human FGFR1c (amino acids 1-731 of NP_075594) with cell-surface human KLB on HEK293/hFGFR1c/hKLB/SRE-Luc cells of Example 19 (human) (UniProt P11362); experiment: cell-based or functional assay
[7] = biological target: human KLB and human FGFR1c co-expressed on HEK293/hKLB/hFGFR1c/SRE-luc cells (human) (UniProt Q86Z14); experiment: cell-based or functional assay
[8] = biological target: cell-surface human FGFR1c (amino acids 1-731 of NP_075594) with cell-surface human KLB on HEK293/hFGFR1c/hKLB/SRE-Luc cells of Example 19 (human) (UniProt P11362); experiment: cell-based or functional assay; remark: listed apart in the source
[9] = biological target: extracellular domain of human KLB expressed with C-terminal HA and hexahistidine tags (human) (UniProt Q86Z14); experiment: SPR, mAb captured, 25 C
[10] = biological target: extracellular domain of human FGFR1c expressed with C-terminal V5 and hexahistidine tags (human) (UniProt P11362); experiment: SPR, mAb captured, 25 C
[11] = biological target: full-length human FGFR1c on HEK293/hFGFR1c/SRE-luc cells (human) (UniProt P11362); experiment: FACS on stable HEK293 cells, 33 nM
[12] = biological target: human KLB and human FGFR1c co-expressed on HEK293/hKLB/hFGFR1c/SRE-luc cells (human) (UniProt Q86Z14); experiment: FACS on stable HEK293 cells, 33 nM
[13] = biological target: mouse KLB and mouse FGFR1c co-expressed on HEK293/mKLB/mFGFR1c/SRE-Luc cells (mouse); experiment: FACS on stable HEK293 cells, 33 nM

- 20 nM hKLB-HA-6His Bind (RU) [1]: 189 RU
- Kd [1]: 0.614 nM
- koff [1]: 0.000321 s⁻¹
- kon [1]: 523000 M⁻¹ s⁻¹
- t1/2 [1]: 36 min
- 180 nM hFGFR1c-V5-6His Bind (RU) [2]: 0 RU
- binding ratio to unstained cells [3]: 1 fold
- binding ratio to unstained cells [4]: 10 fold
- binding ratio to unstained cells [5]: 22 fold
- % Activation [6]: 6.1%
- EC50, SRE-luc activation [6]: 0.17 nM
- EC50, SRE-luc activation without ligand [7]: 0.15 nM
- IC50, inhibition of 1 nM 6His-hFGF21 [7]: 0.11 nM
- Maximum Activation (%) [7]: 4.5%
- Maximum Inhibition (%) [7]: 72%
- % Activation [8]: 7.5%
- EC50, SRE-luc activation [8]: 0.24 nM
- 20 nM hKLB-HA-6His Bind (RU) [9]: 75.3 RU
- Kd [9]: 0.305 nM
- koff [9]: 0.000149 s⁻¹
- kon [9]: 489000 M⁻¹ s⁻¹
- t1/2 [9]: 77.5 min
- 180 nM hFGFR1c-V5-6His Bind (RU) [10]: 0.4 RU
- MFI Ratio to unstained cells [11]: 1 fold
- MFI Ratio to unstained cells [12]: 15 fold
- MFI Ratio to unstained cells [13]: 1 fold
B1: Comparator 1 (antibody, from another filing, V domains shown)
VH: QVTLKESGPVLVKPTETLTLTCTVSGFSLNNARMGVSWIRQPPGKALEWLAHIFSNDEKSYSTSLKSRLTISKDTSKSQVVLIMTNMDPVDTATYYCARSVVTGGYYYDGMDVWGQGTTVTVSS
VL: SYVLTQPPSVSVAPGQTARITCGGNNIGSESVHWYQQKPGQAPVLVVYDDSDRPSGIPERFSGSNSGNTATLTISRVEAGDEADYYCQVWDGNSDHVVFGGGTKLTVLG
